The values below are quoted from earlier work in patent publication US20080003250A1, “NOVEL THERAPY FOR HERPESVIRUS INFECTION” (priority 2006, published 2008).

The conditions of the series: oral, relative to ACV; cited from earlier work.

In the case of ACV-valylchenodeoxycholate, the increase in bioavailability entry is on record as “two-fold”.
